Reference: US5112992A, “Production of polycarboxylic acids with hafnium-activated cobalt catalyst” (Amoco Corporation, priority 1991, dated 1992)

Test: Solubility of hafnium and zirconium tetrabromides in acetic acid-water mixtures in presence of trimellitic acid
Details: 0.0012M tetrabromide in 20% water-acetic acid at reflux, trimellitic acid 0.71M added

## [Br][Zr]([Br])([Br])[Br] [zirconium tetrabromide, reference compound]
  Appearance of solution after adding trimellitic acid: precipitation occurred
